The values that follow are results of earlier work, collected in US11001595B2, “Pyrimidine compounds and pyrimido indole compounds and methods of use” (Duquesne University of the Holy Spirit, priority 2014, dated 2021).

Sequences of proteins named here, by UniProt entry; tags and fusion partners are left off. Residues count along the entry.
UniProt P09619, 33-1106: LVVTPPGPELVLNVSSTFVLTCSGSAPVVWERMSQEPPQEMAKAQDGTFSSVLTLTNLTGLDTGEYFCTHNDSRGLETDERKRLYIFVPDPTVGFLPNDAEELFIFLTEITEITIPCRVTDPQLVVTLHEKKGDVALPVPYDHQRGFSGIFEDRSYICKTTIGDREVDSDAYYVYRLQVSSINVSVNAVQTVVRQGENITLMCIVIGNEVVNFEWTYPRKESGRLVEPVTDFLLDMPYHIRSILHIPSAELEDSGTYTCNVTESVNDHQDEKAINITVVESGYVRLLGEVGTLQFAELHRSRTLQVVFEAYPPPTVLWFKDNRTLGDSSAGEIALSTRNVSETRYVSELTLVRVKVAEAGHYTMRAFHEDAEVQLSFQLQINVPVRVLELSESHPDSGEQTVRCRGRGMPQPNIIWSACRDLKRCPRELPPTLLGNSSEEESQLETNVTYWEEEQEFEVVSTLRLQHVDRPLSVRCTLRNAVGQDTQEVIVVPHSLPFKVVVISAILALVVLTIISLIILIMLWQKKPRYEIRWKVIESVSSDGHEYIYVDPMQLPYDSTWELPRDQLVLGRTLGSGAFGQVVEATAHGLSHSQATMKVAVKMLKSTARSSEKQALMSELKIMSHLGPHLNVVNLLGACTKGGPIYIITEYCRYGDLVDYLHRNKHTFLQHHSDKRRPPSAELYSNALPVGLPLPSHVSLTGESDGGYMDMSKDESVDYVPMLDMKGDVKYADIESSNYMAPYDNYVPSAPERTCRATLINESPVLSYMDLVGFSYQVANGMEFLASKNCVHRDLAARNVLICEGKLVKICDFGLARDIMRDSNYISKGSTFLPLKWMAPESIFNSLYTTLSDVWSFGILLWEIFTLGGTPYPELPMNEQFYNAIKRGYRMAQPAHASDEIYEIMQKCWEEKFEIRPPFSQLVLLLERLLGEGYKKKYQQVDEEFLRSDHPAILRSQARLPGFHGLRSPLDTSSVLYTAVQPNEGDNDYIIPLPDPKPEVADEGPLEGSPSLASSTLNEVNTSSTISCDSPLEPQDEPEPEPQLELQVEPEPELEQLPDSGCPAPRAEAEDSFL

Usually IC50 stands for the point on the concentration scale where inhibition reaches its midpoint.

In the series the target is PDGFR-β (Homo sapiens (Human), UniProt P09619). To be noted: read-out: PDGFR-β Kinase Inhibition IC50; cited from earlier work.

As to DMBI, the concentration for half-maximal inhibition (IC50) is 3.75 ± 0.31 µM.
